{
  "sequences": {"note": "The chains behind the UniProt entries cited, without tags or fusion partners.", "UniProt Q8VCK6, whole entry R65K": "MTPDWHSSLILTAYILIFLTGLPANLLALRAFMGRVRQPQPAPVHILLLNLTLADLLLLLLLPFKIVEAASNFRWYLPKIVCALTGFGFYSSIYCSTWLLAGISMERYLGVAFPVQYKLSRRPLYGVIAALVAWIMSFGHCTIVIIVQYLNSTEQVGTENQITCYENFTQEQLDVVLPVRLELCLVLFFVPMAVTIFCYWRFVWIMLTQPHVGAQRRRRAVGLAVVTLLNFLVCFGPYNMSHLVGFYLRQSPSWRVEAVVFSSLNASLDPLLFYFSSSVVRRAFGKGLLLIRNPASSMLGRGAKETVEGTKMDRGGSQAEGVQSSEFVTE"},
  "source": "paper PMC5653858",
  "about": "“A single extracellular amino acid in Free Fatty Acid Receptor 2 defines antagonist species selectivity and G protein selection bias” (Scientific Reports, 2017)",
  "target": "Arg^65Lys mFFA2 (Mus musculus, UniProt Q8VCK6, R65K)",
  "test": "[3H]GLPG0974 radioligand binding assay, Arg65Lys mFFA2",
  "conditions": "tested as the radiolabelled form",
  "data": [
    {"smiles": "C[C@]1(C(=O)N(CCCC(=O)O)Cc2cccc(Cl)c2)CCN1C(=O)c1csc2ccccc12", "values": [
      {"measurement": "Kd", "setting": "read-out: Kd at Arg65Lys mFFA2, saturation binding, membranes", "result": 51, "unit": "nM"},
      {"measurement": "affinity at Arg65Lys mFFA2 lower than for wild type hFFA2", "result": 7, "unit": "fold"}
    ]}
  ]
}
